For test [1], the target named is T1, Phosphatidylinositol 4,5-bisphosphate 3-kinase catalytic subunit delta isoform (Homo sapiens, UniProt O00329).
T1 sequence (O00329 whole entry): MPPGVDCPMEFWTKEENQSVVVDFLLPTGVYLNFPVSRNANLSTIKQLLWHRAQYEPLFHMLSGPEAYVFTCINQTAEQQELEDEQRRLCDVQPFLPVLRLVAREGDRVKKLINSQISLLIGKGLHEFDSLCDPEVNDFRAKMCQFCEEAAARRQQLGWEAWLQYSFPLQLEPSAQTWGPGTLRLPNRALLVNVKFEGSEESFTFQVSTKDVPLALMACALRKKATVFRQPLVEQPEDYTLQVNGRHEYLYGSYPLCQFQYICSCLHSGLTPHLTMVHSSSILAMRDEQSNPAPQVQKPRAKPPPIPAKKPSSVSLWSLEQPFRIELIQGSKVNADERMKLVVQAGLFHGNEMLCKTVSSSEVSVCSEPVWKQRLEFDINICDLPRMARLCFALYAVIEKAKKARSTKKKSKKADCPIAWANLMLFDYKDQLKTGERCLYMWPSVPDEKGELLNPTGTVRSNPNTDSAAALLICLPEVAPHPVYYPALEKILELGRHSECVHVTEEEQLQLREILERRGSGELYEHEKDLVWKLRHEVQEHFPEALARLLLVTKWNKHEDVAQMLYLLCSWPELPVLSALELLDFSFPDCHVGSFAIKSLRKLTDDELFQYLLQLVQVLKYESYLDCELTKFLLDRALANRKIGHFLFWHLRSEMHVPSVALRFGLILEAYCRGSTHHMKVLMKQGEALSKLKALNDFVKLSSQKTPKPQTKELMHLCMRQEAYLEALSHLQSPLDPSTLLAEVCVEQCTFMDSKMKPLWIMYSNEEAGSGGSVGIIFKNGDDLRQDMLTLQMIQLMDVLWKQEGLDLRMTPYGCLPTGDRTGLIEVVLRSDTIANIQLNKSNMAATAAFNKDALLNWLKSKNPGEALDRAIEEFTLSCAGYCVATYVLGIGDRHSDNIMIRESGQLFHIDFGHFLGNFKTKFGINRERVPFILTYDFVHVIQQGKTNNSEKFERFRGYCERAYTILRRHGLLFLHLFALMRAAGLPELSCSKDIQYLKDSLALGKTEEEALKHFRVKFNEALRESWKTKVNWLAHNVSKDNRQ
The test is described as follows: Inhibition of PI3Kdelta (unknown origin).

By UniProt entry, the sequences of proteins in these tests, tags left out.
UniProt P42336, whole entry: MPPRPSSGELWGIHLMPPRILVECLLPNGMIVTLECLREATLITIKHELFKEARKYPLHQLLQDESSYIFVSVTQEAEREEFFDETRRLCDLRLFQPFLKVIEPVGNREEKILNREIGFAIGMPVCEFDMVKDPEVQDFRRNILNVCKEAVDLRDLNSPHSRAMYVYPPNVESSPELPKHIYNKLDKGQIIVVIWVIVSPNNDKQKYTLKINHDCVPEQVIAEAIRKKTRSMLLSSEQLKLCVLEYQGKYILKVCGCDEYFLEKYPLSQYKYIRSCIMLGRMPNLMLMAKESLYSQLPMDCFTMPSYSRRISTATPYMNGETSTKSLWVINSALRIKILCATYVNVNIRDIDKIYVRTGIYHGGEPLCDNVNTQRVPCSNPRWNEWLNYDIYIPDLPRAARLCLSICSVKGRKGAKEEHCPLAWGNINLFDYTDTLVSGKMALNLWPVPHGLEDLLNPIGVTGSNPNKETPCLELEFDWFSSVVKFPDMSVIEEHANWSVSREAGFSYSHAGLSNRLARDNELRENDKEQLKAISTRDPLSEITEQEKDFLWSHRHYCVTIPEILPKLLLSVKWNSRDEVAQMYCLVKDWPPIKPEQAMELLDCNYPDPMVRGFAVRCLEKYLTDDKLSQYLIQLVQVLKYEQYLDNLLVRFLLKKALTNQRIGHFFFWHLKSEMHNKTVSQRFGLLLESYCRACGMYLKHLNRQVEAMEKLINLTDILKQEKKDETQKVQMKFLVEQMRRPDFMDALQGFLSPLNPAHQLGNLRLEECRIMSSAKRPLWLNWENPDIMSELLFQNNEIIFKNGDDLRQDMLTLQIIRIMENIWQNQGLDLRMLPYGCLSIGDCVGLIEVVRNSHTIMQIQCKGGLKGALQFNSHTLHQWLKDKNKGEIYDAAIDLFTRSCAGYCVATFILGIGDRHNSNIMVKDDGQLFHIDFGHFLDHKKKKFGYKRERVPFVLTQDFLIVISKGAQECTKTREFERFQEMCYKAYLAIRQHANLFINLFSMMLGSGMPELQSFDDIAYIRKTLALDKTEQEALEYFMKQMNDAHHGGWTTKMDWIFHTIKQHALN

The target of test [2] is Phosphatidylinositol 4,5-bisphosphate 3-kinase catalytic subunit alpha isoform (Homo sapiens, UniProt P42336). The test is described as follows: Inhibition of PI3K-p110alpha (unknown origin) extracted from baculovirus-infected Sf9 cells incubated for 1 hr by microbeta counter analysis.

The term IC50 denotes the concentration that gives 50% inhibition. A low value points to greater potency in that assay. In the case of `Cc1nc(-c2cn3c(n2)-c2ccc(-c4cnn(C(C)(C)C(N)=O)c4)cc2OCC3)n(C(C)C)n1` [TASELISIB], the IC50 worked out at 0.97 nM in test [1] and 0.29 nM in test [2].

The record behind these values is ChEMBL document CHEMBL6120936, “Autophagy modulation in cancer therapy: Challenges coexist with opportunities” (Eur J Med Chem, 2024).
